Emax and Activity data for six molecules are collected here from ChEMBL document CHEMBL5338760, “Ψ and χ Angle Constrains at the C-Terminus Trp Position of the Melanotropin Tetrapeptide Ac-His-d-Phe-Arg-Trp-NH2 Lead to Potent and Selective Agonists at hMC1R and hMC4R” (J Med Chem, 2023).

Sequences of proteins named here, by UniProt entry; tags and fusion partners are left off. A change or cut given only in a name is not applied to a line headed by its entry.
UniProt P41968: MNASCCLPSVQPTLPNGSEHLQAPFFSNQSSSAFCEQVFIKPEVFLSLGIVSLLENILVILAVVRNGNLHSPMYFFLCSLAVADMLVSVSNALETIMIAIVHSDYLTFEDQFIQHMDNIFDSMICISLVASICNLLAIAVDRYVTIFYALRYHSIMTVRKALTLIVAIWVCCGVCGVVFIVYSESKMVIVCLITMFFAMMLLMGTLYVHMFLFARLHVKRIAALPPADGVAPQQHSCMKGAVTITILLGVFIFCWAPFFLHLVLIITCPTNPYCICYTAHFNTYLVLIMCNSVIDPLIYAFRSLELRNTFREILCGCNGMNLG
UniProt Q01726: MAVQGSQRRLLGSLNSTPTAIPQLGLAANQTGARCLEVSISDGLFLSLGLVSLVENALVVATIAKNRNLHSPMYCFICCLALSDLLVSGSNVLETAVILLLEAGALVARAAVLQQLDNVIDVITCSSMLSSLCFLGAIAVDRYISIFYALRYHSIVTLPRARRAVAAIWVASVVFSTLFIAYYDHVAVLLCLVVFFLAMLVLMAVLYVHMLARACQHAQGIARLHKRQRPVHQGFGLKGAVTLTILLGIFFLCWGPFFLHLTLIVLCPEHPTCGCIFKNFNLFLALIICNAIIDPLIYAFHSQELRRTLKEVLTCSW
UniProt P33032: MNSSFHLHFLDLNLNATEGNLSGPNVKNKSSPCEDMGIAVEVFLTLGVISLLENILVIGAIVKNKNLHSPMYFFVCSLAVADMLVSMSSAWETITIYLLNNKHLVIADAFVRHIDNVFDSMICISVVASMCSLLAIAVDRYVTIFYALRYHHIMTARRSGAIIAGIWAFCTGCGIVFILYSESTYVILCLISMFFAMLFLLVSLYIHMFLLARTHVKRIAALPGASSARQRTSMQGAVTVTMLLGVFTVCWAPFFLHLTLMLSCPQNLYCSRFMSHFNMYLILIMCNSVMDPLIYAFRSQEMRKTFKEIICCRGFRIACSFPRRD

Each structure is given as a SMILES string.

Assay [1] has as its target T1, Melanocortin receptor 3 (Homo sapiens, UniProt P41968). Kind of assay: Agonist activity at human MC3R stably overexpressing in HEK293 cells assessed as intracellular acumulation of cAMP level incubated at 10 uM for 30 mins measured by microbeta 2 microplate counter analysis relative to MT-II. The class given is functional, cell-based. On the technique in general: Changes in cAMP serve as a functional read-out for many G protein-coupled receptors.

In assay [2] the target is T2, Melanocyte-stimulating hormone receptor (Homo sapiens, UniProt Q01726). Description: Agonist activity at human MC1R stably overexpressing in HEK293 cells assessed as intracellular acumulation of cAMP level incubated at 10 uM for 30 mins measured by microbeta 2 microplate counter analysis relative to MT-II. The assay is classed as functional, cell-based.
The target in assay [3] is T3, Melanocortin receptor 5 (Homo sapiens, UniProt P33032). Description: Displacement of [I125] NDP-alpha-MSH from human MC5R stably overexpressing in HEK293 cells in presence of [I125] labeled NDP-alpha-MSH treated at 10 uM for 40 mins measured by microbeta 2 microplate counter analysis relative to control. The class given is cell-based.
Assay [4] concerns the target T3, Melanocortin receptor 5. Description: Agonist activity at human MC5R stably overexpressing in HEK293 cells assessed as intracellular acumulation of cAMP level incubated at 10 uM for 30 mins measured by microbeta 2 microplate counter analysis relative to MT-II. The class given is functional, cell-based.
Assay [5] has as its target T2, Melanocyte-stimulating hormone receptor. Kind of assay: Displacement of [I125] NDP-alpha-MSH from human MC1R stably overexpressing in HEK293 cells in presence of [I125] labeled NDP-alpha-MSH treated at 10 uM for 40 mins measured by microbeta 2 microplate counter analysis relative to control. The class given is cell-based.
Assay [6] deals with T1, Melanocortin receptor 3. Description: Displacement of [I125] NDP-alpha-MSH from human MC3R stably overexpressing in HEK293 cells in presence of [I125] labeled NDP-alpha-MSH treated at 10 uM for 40 mins measured by microbeta 2 microplate counter analysis relative to control. The assay is classed as cell-based.

Broadly, the Emax is the greatest response seen or fitted, relative to the assay's reference. For `CC(=O)N[C@@H](Cc1c[nH]cn1)C(=O)N[C@H](Cc1ccccc1)C(=O)N[C@@H](CCCNC(=N)N)C(=O)N[C@H]1Cc2ccccc2CNC1=O`, the Emax (at Melanocortin receptor 3 [1]; in assay [2]; at Melanocortin receptor 5 [4]) was 0% each time. Moreover, the Activity (on Melanocortin receptor 5 [3]; in assay [5]; on Melanocortin receptor 3 [6]) was 0% each time.
For `CC(=O)N[C@@H](Cc1c[nH]cn1)C(=O)N[C@H](Cc1ccccc1)C(=O)N[C@@H](CCCNC(=N)N)C(=O)N[C@H]1Cn2nncc2CNC1=O`, the Emax at Melanocortin receptor 3 [1] (filed as agonist) worked out at 55%; at Melanocortin receptor 5 [4] it was 0%. Further, the results for the Activity at Melanocortin receptor 5 [3] (filed as agonist) and on Melanocortin receptor 3 [6] were 48% and 0%, respectively.
Take `CCCC[C@H](NC(=O)[C@@H](Cc1ccccc1)NC(=O)[C@H](Cc1c[nH]cn1)NC(C)=O)C(=O)N[C@H]1Cn2nncc2CNC1=O`: the Emax (at Melanocortin receptor 3 [1]; in assay [2]; on Melanocortin receptor 5 [4]) was 0% each time. Also, the Activity (on Melanocortin receptor 5 [3]; in assay [5]; at Melanocortin receptor 3 [6]) was 0% in each case.
On to `CC(=O)N[C@@H](Cc1c[nH]cn1)C(=O)N[C@H](Cc1ccc(C(F)(F)F)cc1)C(=O)N[C@@H](CCCNC(=N)N)C(=O)N[C@H]1Cc2c([nH]c3ccccc23)CNC1=O`, for which the Emax at Melanocortin receptor 3 [1] and at Melanocortin receptor 5 [4] was 0% each time. Besides, the Activity turned out to be 100% on Melanocortin receptor 5 [3] (filed as agonist) and 43% at Melanocortin receptor 3 [6] (filed as agonist).
`CCCC[C@H](NC(=O)[C@@H](Cc1ccccc1)NC(=O)[C@H](Cc1c[nH]cn1)NC(C)=O)C(=O)N[C@H]1Cc2ccccc2CNC1=O`: the Emax (on Melanocortin receptor 3 [1]; in assay [2]; at Melanocortin receptor 5 [4]) was 0% in each case. Moreover, the Activity (on Melanocortin receptor 5 [3]; in assay [5]; at Melanocortin receptor 3 [6]) was 0% each time.
For the molecule `CCCC[C@H](NC(=O)[C@@H](Cc1ccccc1)NC(=O)[C@H](Cc1c[nH]cn1)NC(C)=O)C(=O)N[C@H]1Cc2c([nH]c3ccccc23)CNC1=O`, the Emax on Melanocortin receptor 3 [1] (filed as agonist) amounted to 57%; in assay [2] (filed as agonist) it was 100%; at Melanocortin receptor 5 [4], 0%. The Activity (at Melanocortin receptor 5 [3]; in assay [5]; at Melanocortin receptor 3 [6]) was 0% each time.
